Target: the molecule itself
Assay: mass photometry; dimer to monomers; enzymes diluted to between 5 and 100 nM; counts in monomer and dimer peaks

B1: human asparaginyl-tRNA synthetase (AsnRS), wild type, N-terminal 6xHis tag (enzyme, UniProt O43776 1-548, looked up)
chain: MVLAELYVSDREGSDATGDGTKEKPFKTGLKALMTVGKEPFPTIYVDSQKENERWNVISKSQLKNIKKMWHREQMKSESREKKEAEDSLRREKNLEEAKKITIKNDPSLPEPKCVKIGALEGYRGQRVKVFGWVHRLRRQGKNLMFLVLRDGTGYLQCVLADELCQCYNGVLLSTESSVAVYGMLNLTPKGKQAPGGHELSCDFWELIGLAPAGGADNLINEESDVDVQLNNRHMMIRGENMSKILKARSMVTRCFRDHFFDRGYYEVTPPTLVQTQVEGGATLFKLDYFGEEAFLTQSSQLYLETCLPALGDVFCIAQSYRAEQSRTRRHLAEYTHVEAECPFLTFDDLLNRLEDLVCDVVDRILKSPAGSIVHELNPNFQPPKRPFKRMNYSDAIVWLKEHDVKKEDGTFYEFGEDIPEAPERLMTDTINEPILLCRFPVEIKSFYMQRCPEDSRLTESVDVLMPNVGEIVGGSMRIFDSEEILAGYKREGIDPTPYYWYTDQRKYGTCPHGGYGLGLERFLTWILNRYHIRDVCLYPRFVQRCTP
notes: also called AsnRS^WT; His-WT; source: E. coli BL21(DE3) or BL21 ClearColi, purified (Ni-NTA, heparin, SEC); not shown: His6, N-terminal, kept
  Kd: 3 ± 1.2 nM
